Test results taken from patent US10258602B2 (Ocera Therapeutics, Inc., priority 2007, dated 2019).

By UniProt entry, the sequences of proteins in these tests, tags left out.
UniProt Q92847, whole entry: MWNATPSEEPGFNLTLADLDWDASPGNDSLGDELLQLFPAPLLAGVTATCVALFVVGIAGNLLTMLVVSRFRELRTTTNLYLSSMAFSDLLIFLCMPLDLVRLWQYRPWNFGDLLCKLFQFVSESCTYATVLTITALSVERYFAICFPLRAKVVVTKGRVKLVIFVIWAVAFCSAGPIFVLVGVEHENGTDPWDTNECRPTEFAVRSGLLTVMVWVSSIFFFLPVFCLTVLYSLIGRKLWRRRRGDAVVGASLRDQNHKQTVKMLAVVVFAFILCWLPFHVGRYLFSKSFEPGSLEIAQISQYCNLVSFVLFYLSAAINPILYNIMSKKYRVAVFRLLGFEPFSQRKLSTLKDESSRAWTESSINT

Biological target: GHS-R1a receptor (human ghrelin receptor) (Homo sapiens, UniProt Q92847)
Assay: Aequorin functional assay (ghrelin receptor), standard method B
Settings: functional activity at the human ghrelin receptor

| EC50 [nM] | SMILES |
| --- | --- |
| < 400 | CCC(C)C1NCC(C)Oc2ccccc2CCCNC(=O)C(CC(C)C)NC(=O)C(C)N(C)C1=O (single isomer, unassigned) |

Biological target: human growth hormone secretagogue receptor (hGHS-R1a) (Homo sapiens, UniProt Q92847)
Assay: Competitive radioligand binding assay (ghrelin receptor), standard method A
Settings: binding activity at the human ghrelin receptor

| Ki [nM] | SMILES |
| --- | --- |
| < 500 | CC(C)CC1NC(=O)C(C)N(C)C(=O)C(C2CC2)NCC(C)Oc2cccnc2CCCNC1=O (single isomer, unassigned) |
| > 500 | CC(C)C[C@H]1NC(=O)[C@@H](C)N(C)C(=O)[C@H](C2CC2)NCC2Cc3cccc(c3O2)CCCNC1=O (single isomer, unassigned) |
| < 100 | CC1CCc2ccccc2OCCNC(C2CC2)C(=O)N(C)C(C)C(=O)NC(Cc2ccc(O)cc2)C(=O)N1 (single isomer, unassigned) |
| < 100 | CCC(C)C1NCC(C)Oc2ccccc2CCCNC(=O)C(CC(C)C)NC(=O)C(C)N(C)C1=O (single isomer, unassigned) |
| < 100 | C[C@@H]1C(=O)N[C@H](Cc2ccc(F)cc2)C(=O)NCCCc2cccc3c2OC(CN[C@@H](C2CC2)C(=O)N1C)C3 (single isomer, unassigned) |
